Results as given in patent US11001609B2, “Cell permeable cyclic peptide scaffolds” (priority 2017, dated 2021).

Format: in vitro ADME
Conditions: not given

Substance	Permeability Value [×10⁻⁶ cm/s]
LA02, 1, BHF, P, L***, F [Compound 276]	14.54
LA02, LA08, L***, p, LA08, F [Compound 731]	6.081
a, LA08, M1, P, L***, F [Compound 292]	14.29
BHF, LA08, LA08, p, M1, F [Compound 1017]	1.103
LA02, ML***, BHF, P, L***, F [Compound 698]	6.791
A, LA08, LA08, p, L***, F [Compound 911]	3.064
a, LA08, 1, P, LA08, F [Compound 711]	6.542
LA02, M1, 1, P, LA08, F [Compound 886]	3.399
BHF, ML***, LA08, P, LA08, F [Compound 940]	2.559
A, LA08, L***, P, M1, F [Compound 324]	13.55
BHF, M1, BHF, p, M1, F [Compound 504]	10.39
BHF, ML***, ML***, P, LA08, F [Compound 986]	1.771
A, LA08, 1, P, LA08, F [Compound 330]	13.47
Ma, LA08, 1, p, ML***, F [Compound 463]	11.01
LA02, M1, BHF, p, M1, F [Compound 304]	13.94
LA02, LA08, M1, P, 1, F [Compound 339]	13.28
a, LA08, L***, P, LA08, F [Compound 453]	11.13
LA02, 1, BHF, p, L***, F [Compound 661]	7.429

Substance	Permeability Value [×10⁻⁶ cm/s]
LA02, 1, M1, p, M1, F [Compound 663]	7.403
a, LA08, M1, P, L***, F [Compound 288]	14.36
LA02, 1, M1, P, M1, F [Compound 778]	5.292
LA02, M1, BHF, p, M1, F [Compound 758]	5.604
Ma, LA08, 1, P, M1, F [Compound 252]	15.38
LA02, LA08, M1, P, 1, F [Compound 531]	9.778
A, LA08, 1, P, LA08, F [Compound 696]	6.812
a, LA08, LA08, p, 1, F [Compound 667]	7.302
LA02, M1, BHF, p, M1, F [Compound 923]	2.865
BHF, LA08, M1, p, M1, F [Compound 406]	11.86
LA02, 1, M1, P, M1, F [Compound 21]	26.83
a, LA08, M1, P, LA08, F [Compound 811]	4.888
BHF, ML***, LA08, p, LA08, F [Compound 993]	1.57
a, LA08, 1, P, LA08, F [Compound 763]	5.564
BHF, ML***, LA08, P, LA08, F [Compound 956]	2.318
A, LA08, L***, P, LA08, F [Compound 592]	8.615
Ma, LA08, 1, p, ML***, F [Compound 355]	13.05
LA02, M1, BHF, P, M1, F [Compound 582]	8.802

Same assay, conditions: PAMPA Pe; 1% lecithin in n-dodecane, PBS with 5% DMSO, 25° C., 18 hours; corrected on 1NMe3 standard

Substance	Permeability Value [×10⁻⁶ cm/s]
a, LA08, LA08, P, ML***, F [Compound 372]	12.6
LA02, LA08, ML***, P, M1, F [Compound 444]	11.22
Ma, LA08, M1, P, L***, F [Compound 131]	18.91
LA02, L***, LA08, P, LA08, F [Compound 537]	9.721
BHF, 1, LA08, p, M1, F [Compound 588]	8.698
BHF, LA08, M1, P, L***, F [Compound 553]	9.359
LA02, L***, M1, p, LA08, F [Compound 745]	5.796
MA, LA08, ML***, P, M1, F [Compound 754]	5.643
LA02, M1, LA08, p, LA08, F [Compound 520]	9.988
LA02, ML***, LA08, P, LA08, F [Compound 687]	6.944
LA02, LA08, BHF, P, L***, F [Compound 710]	6.591
LA02, M1, LA08, p, 1, F [Compound 507]	10.36
a, LA08, 1, p, M1, F [Compound 751]	5.722
LA02, ML***, BHF, p, 1, F [Compound 558]	9.24

Same assay, conditions: PAMPA Pe; 1% lecithin in n-dodecane, PBS with 5% DMSO, 25° C., 18 hours; corrected to 1NMe3 standard

Substance	Permeability Value [×10⁻⁶ cm/s]
BHF, 1, LA08, P, LA08, F [Compound 985]	1.8
Ma, LA08, BHF, p, M1, F [Compound 947]	2.459
Ma, LA08, BHF, p, ML***, F [Compound 849]	3.987
BHF, M1, LA08, P, LA08, F [Compound 1036]	0.7632
LA02, 1, BHF, P, LA08, F [Compound 868]	3.672
BHF, M1, M1, P, 1, F [Compound 839]	4.186
MA, LA08, L***, p, LA08, F [Compound 1006]	1.315
